Results reported in patent publication US20190070268A1, “ABUSE-DETERRENT PHARMACEUTICAL COMPOSITIONS” (priority 2016, published 2019).

Tested on: laccase
Details: 1000 mg/L opioid, 10 Units laccase per ml, NaPi Buffer pH 7 50 mM

CN1CC[C@]23c4c5ccc(O)c4O[C@H]2C(=O)CC[C@H]3[C@H]1C5 [hydromorphone]
oxygen concentration / laccase activity: showed laccase activity
